We go through three compounds from patent US10358436B2, “Kinase inhibitors and method of treating cancer” (University Health Network, priority 2010, dated 2019).

Chains of the proteins cited; added tags and fusions are not shown. Lines headed by an entry give the natural chain unless they say otherwise; changes in a name come on top. Residues count along the entry.
UniProt P07948: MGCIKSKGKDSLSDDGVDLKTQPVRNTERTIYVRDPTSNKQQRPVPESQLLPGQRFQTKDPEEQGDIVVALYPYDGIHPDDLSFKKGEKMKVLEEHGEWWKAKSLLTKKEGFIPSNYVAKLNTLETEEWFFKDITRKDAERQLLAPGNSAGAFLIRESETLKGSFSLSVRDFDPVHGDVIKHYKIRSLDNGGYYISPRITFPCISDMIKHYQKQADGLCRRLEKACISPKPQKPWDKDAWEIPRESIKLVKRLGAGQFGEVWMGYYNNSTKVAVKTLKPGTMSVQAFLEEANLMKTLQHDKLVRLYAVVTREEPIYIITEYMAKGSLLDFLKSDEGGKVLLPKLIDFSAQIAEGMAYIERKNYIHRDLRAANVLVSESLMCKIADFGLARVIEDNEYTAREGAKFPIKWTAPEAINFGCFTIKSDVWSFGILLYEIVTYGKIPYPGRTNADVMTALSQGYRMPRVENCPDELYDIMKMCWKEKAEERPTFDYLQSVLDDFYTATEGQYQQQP
UniProt P06239: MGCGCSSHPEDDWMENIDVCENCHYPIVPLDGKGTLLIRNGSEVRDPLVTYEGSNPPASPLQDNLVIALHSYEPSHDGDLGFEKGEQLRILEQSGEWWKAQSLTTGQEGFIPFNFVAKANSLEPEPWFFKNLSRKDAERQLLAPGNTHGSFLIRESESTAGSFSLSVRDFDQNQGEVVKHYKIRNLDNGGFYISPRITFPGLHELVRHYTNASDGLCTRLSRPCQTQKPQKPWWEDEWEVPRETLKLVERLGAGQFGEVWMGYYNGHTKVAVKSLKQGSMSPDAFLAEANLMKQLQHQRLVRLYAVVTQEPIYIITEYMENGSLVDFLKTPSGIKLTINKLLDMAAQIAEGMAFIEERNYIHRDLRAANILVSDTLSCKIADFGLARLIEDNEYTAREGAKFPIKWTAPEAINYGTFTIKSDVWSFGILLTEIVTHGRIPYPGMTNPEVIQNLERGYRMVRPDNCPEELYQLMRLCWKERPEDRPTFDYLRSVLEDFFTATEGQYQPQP
UniProt P04629, 33-796: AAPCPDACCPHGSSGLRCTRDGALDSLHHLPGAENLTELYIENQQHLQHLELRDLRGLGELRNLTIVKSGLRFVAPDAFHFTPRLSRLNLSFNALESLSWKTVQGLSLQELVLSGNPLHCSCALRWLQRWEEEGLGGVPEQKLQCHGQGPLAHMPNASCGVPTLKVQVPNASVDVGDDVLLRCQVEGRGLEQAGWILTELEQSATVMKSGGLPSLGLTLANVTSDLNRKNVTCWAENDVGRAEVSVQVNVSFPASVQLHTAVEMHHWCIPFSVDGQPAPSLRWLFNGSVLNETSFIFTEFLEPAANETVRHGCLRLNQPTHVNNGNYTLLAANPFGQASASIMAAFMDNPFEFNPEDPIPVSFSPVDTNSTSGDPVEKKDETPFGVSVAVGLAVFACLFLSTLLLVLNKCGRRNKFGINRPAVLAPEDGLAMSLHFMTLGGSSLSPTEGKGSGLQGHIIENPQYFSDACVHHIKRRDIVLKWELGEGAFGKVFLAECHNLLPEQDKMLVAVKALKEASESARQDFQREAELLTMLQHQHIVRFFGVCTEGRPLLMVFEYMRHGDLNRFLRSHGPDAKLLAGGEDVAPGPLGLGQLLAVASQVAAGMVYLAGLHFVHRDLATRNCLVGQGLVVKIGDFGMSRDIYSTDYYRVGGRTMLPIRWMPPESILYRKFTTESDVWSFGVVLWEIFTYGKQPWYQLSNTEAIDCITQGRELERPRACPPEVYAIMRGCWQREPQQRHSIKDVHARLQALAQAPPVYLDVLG
UniProt P17948, 27-1338: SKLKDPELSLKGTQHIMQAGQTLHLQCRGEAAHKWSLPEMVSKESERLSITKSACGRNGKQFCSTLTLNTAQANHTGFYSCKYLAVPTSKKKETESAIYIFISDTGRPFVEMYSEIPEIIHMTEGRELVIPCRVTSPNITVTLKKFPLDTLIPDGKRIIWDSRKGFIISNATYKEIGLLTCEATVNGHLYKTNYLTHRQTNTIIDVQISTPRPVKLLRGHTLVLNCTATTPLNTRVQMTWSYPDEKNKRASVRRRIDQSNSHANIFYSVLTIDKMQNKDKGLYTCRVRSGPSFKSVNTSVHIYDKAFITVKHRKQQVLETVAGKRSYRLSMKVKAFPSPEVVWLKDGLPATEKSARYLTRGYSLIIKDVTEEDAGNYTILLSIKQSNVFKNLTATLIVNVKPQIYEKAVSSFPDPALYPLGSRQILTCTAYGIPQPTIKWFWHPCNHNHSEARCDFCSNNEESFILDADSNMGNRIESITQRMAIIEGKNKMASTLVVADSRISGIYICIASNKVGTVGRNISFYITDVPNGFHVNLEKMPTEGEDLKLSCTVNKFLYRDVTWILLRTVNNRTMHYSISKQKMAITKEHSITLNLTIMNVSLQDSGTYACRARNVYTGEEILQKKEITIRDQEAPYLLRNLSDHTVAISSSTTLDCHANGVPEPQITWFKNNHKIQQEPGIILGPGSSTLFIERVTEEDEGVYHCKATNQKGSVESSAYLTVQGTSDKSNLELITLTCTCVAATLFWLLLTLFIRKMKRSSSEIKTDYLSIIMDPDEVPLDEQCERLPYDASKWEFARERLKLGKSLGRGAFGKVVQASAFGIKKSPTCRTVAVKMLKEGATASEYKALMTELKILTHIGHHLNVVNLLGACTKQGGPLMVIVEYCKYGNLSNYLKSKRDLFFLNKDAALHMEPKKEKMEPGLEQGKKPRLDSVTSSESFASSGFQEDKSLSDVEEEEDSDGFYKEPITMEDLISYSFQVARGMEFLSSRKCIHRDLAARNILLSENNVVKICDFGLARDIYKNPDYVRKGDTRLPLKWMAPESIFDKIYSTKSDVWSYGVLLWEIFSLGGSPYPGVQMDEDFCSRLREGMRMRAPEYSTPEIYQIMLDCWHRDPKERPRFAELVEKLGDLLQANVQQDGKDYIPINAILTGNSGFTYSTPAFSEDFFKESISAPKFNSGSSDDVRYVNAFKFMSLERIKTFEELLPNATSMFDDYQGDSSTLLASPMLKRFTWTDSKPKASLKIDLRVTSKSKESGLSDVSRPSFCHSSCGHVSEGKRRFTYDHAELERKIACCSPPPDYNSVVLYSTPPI
UniProt P05771, whole entry: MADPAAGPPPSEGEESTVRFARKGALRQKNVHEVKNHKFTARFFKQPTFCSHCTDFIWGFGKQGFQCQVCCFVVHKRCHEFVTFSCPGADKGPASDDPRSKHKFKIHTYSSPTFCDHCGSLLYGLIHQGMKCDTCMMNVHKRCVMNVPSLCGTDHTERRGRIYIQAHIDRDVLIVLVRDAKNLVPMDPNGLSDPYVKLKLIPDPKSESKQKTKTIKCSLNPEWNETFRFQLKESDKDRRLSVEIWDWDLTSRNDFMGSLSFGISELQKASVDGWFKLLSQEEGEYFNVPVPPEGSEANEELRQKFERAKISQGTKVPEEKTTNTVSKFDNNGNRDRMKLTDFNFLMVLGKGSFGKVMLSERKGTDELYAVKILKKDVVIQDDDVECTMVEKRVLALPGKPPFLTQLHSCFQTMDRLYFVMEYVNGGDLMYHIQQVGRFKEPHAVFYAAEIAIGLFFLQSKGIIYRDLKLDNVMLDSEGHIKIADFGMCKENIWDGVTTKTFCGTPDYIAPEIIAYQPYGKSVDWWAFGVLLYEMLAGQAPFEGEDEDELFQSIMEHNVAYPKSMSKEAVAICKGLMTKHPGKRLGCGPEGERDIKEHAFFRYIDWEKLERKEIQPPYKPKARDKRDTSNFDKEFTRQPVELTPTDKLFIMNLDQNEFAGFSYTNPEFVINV
UniProt P08069, 31-1367: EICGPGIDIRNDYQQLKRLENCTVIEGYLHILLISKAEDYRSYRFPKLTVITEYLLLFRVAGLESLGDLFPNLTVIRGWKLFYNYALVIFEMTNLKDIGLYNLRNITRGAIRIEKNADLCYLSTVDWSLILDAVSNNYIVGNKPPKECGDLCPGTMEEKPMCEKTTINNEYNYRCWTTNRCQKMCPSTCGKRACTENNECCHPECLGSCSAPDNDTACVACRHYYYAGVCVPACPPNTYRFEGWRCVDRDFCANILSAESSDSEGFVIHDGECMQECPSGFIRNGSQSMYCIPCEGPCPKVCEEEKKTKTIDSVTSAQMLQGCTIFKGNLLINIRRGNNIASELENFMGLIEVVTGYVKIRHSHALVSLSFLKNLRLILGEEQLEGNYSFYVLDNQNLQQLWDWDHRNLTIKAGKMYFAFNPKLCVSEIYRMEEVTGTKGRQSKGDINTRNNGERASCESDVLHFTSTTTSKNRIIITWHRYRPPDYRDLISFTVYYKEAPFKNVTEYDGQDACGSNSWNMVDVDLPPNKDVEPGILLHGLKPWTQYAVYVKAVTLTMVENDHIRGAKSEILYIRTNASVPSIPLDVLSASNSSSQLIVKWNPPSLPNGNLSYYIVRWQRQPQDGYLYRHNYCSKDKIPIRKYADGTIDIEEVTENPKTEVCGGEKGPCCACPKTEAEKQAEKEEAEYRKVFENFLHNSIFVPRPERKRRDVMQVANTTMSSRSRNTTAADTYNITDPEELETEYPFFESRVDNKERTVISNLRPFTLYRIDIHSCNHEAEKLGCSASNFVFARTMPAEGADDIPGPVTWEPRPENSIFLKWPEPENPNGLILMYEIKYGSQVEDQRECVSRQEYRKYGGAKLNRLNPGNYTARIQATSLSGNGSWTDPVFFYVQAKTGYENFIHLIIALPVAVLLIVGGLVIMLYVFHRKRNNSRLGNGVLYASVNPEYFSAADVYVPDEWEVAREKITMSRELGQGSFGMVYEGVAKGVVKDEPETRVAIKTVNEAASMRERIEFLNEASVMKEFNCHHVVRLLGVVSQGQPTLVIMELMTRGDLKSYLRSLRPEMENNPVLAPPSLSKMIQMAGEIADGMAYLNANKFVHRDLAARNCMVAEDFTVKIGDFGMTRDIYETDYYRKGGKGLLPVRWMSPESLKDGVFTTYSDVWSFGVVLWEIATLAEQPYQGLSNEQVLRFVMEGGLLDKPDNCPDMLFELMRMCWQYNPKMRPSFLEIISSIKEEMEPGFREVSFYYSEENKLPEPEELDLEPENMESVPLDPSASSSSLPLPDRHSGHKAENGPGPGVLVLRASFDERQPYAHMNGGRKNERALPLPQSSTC
UniProt Q16539, whole entry: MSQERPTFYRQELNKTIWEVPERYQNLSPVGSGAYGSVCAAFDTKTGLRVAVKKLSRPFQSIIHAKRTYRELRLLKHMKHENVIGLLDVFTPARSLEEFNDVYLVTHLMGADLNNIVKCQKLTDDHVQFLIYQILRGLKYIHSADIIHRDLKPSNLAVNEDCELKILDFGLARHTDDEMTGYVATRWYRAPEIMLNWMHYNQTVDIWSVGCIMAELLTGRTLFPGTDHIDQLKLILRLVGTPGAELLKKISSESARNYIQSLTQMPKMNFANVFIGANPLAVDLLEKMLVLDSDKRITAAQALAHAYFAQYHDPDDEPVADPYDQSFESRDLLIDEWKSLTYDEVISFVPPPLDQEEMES
UniProt P00519, whole entry: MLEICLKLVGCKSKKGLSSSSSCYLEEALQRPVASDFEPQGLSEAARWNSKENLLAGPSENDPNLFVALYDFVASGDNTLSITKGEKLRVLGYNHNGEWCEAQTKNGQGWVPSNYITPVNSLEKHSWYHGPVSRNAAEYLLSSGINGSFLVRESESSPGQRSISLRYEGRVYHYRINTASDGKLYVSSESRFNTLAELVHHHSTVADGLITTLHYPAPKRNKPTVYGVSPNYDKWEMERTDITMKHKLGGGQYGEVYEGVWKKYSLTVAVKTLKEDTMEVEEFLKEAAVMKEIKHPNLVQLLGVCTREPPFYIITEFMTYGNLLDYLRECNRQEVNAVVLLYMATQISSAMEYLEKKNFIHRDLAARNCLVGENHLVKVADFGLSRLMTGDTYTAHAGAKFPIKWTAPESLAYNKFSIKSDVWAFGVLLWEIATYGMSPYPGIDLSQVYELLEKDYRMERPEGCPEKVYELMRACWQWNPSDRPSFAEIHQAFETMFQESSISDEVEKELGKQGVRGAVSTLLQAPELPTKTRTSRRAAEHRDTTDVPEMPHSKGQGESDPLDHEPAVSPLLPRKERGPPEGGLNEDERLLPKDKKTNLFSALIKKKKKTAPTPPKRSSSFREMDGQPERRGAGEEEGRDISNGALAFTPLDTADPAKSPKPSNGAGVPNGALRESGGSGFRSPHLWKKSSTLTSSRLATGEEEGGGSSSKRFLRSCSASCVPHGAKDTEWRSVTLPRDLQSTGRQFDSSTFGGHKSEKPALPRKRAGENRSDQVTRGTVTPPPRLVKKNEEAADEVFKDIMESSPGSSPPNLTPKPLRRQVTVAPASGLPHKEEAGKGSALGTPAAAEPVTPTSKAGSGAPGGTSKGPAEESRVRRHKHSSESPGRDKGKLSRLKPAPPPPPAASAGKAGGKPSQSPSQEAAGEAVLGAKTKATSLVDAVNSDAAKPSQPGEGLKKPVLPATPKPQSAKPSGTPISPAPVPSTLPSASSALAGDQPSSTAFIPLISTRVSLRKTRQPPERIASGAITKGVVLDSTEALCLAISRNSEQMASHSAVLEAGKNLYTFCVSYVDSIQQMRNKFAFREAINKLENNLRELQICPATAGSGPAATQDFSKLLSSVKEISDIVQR

Where two headings read alike, the source gives them in different places.

What all share (type): biochemical
One assay has as its target Lyn kinase (Homo sapiens (Human), UniProt P07948). In words: Kinase selectivity assay (CEREP HTRF panel). The conditions noted are these: read-out: % Inhibition @ 10 uM, Lyn. Background: TR-FRET usually uses a lanthanide donor and a delayed reading to cut background.
Another assay concerns the target Lck (Homo sapiens (Human), UniProt P06239). In words: Kinase selectivity assay (CEREP HTRF panel). The note with it: read-out: % Inhibition @ 10 uM, Lck.
The target of another assay is TRKA (Homo sapiens (Human), UniProt P04629). The assay is described as follows: Kinase selectivity assay (CEREP HTRF panel). The note with it: read-out: % Inhibition @ 10 uM, TRKA.
The target in the next assay is FLT-1 kinase (VEGFR1) (Homo sapiens (Human), UniProt P17948). The assay is described as follows: Kinase selectivity assay (CEREP HTRF panel). The conditions noted are these: read-out: % Inhibition @ 10 uM, FLT-1 (VEGFR1).
The target in the next assay is PKCbeta 1 (Homo sapiens (Human), UniProt P05771). The assay is described as follows: Kinase selectivity assay (CEREP HTRF panel). The conditions noted are these: read-out: % Inhibition @ 10 uM, PKCbeta 1.
The target of another assay is IGF1R kinase (Homo sapiens (Human), UniProt P08069). In words: Kinase selectivity assay (CEREP HTRF panel). The note with it: read-out: % Inhibition @ 10 uM, IGF1R.
The next assay has as its target p38alpha kinase (Homo sapiens (Human), UniProt Q16539). The assay is described as follows: Kinase selectivity assay (CEREP HTRF panel). The note with it: read-out: % Inhibition @ 10 uM, p38alpha.
For the next assay, the target named is Abl (Homo sapiens (Human), UniProt P00519). In words: Kinase selectivity assay (CEREP HTRF panel). The conditions noted are these: read-out: % Inhibition @ 10 uM, Abl.
The target in another assay is JNK 2 (Homo sapiens (Human), UniProt P45984). In words: Kinase selectivity assay (CEREP HTRF panel). The note with it: read-out: % Inhibition @ 10 uM, JNK 2.
For the next assay, the target named is Src kinase (Homo sapiens (Human), UniProt P12931). In words: Kinase selectivity assay (CEREP HTRF panel). The conditions noted are these: read-out: % Inhibition @ 10 uM, Src.
A further assay deals with human PLK4 (Homo sapiens (Human), UniProt O00444). In words: PLK4 inhibition assay (indirect ELISA). (In general: An ELISA detects its analyte on a solid surface through an enzyme-linked reagent.)

On to `COc1ccc2c(c1)[C@]1(C[C@H]1c1ccc3c(-c4ccc(N5CCN(C)CC5)nc4)n[nH]c3c1)C(=O)N2` (relative stereo) [Example A13, (1R*,2S*)-5′-Methoxy-2-(3-(6-(4-methylpiperazin-1-yl)pyridin-3-yl)-1H-indazol-6-yl)spiro[cyclopropane-1,3′-indolin]-2′-one], for which the inhibition (commonly the relative decrease from the control value, in per cent) at 10 µM is 15% at Lyn kinase; 71% at Lck; 93% on TRKA; 22% on FLT-1 kinase (VEGFR1); -2% on PKCbeta 1; -3% at IGF1R kinase. Also, the inhibition at 10 µM at p38alpha kinase was -28%; at Abl, 91%; on JNK 2, 11%; at Src kinase, 13%.
Consider `COc1ccc2c(c1)[C@]1(C[C@H]1c1ccc3c(-c4ccc(N5CCN(C(C)C)CC5)cc4)n[nH]c3c1)C(=O)N2` (relative stereo) [Example A96, (1R*,2S*)-2-(3-(4-(4-isopropylpiperazin-1-yl)phenyl)-1H-indazol-6-yl)-5′-methoxyspiro[cyclopropane-1,3′-indolin]-2′-one], for which, at human PLK4, the IC50 (in general, the concentration needed to halve the response being measured) is below 0.1 µM.
`COc1ccc2c(c1)[C@]1(C[C@H]1c1ccc3c(-c4ccc(C5CCNCC5)cc4)n[nH]c3c1)C(=O)N2` (relative stereo) [Example A122, (1R*,2S*)-5′-methoxy-2-(3-(4-(piperidin-4-yl)phenyl)-1H-indazol-6-yl)spiro[cyclopropane-1,3′-indolin]-2′-one 2,2,2-trifluoroacetate]: at human PLK4 (read-out: PLK4 IC50 Ranges), the 50% inhibitory concentration (IC50) was below 0.1 µM.
